Target: Heat shock protein HSP 90-beta/Hsp90 co-chaperone Cdc37 (Homo sapiens, UniProt P08238+Q16543)
Assay: Disruption of His-tagged full length HSP90 (unknown origin)/GST-tagged Cdc37 (unknown origin) at 50 uM measured after 1 hr by HTRF method
Type: protein-complex assay
Procedure, shortened: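 HTRF in PBS with […], pH 7.3: His-tagged full-length Hsp90 and GST-tagged Cdc37 (each 250 nM final) with compound, 37 °C for 1 h. Anti-GST-Cryptate and anti-6His-XL665 then added for 0.5 h at 37 °C. Time-resolved fluorescence read at ex 320 nm, em 665/620 nm; ratio (665/620) × 10 000.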

Chains of the proteins cited; added tags and fusions are not shown. Lines headed by an entry give the natural chain unless they say otherwise; changes in a name come on top.
UniProt P08238: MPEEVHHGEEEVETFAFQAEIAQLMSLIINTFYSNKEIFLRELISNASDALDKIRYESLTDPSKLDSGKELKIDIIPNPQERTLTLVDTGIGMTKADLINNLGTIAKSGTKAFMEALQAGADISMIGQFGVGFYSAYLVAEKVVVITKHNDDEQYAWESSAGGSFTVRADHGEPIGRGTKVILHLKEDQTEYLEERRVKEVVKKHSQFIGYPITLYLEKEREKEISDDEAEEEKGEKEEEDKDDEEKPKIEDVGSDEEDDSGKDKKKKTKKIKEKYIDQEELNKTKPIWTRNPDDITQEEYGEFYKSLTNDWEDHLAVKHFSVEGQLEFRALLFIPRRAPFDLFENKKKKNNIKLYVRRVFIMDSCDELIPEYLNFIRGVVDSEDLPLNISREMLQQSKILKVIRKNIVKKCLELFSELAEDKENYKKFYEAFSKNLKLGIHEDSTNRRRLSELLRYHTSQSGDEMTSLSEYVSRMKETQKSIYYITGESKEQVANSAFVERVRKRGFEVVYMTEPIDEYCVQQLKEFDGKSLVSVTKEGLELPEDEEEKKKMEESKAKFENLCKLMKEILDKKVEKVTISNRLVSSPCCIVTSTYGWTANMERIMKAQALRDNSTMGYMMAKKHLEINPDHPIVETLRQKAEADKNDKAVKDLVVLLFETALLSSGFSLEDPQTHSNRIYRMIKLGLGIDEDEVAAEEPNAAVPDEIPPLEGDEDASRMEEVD
UniProt Q16543: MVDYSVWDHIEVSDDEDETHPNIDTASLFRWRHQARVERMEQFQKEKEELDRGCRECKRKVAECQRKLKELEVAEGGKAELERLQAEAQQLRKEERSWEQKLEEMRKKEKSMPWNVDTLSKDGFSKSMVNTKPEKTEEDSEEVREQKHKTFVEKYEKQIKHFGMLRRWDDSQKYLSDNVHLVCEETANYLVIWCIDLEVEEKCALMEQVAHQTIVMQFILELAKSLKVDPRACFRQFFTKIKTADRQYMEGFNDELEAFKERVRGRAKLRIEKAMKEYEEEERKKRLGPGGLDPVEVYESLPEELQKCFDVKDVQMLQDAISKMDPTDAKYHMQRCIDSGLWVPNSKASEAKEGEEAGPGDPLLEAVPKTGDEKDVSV

| inhibition [%] | SMILES |
| --- | --- |
| 91.2 | CC1=C(O)C(=O)C=C2C1=CC=C1[C@@]2(C)CC[C@@]2(C)[C@@H]3C[C@](C)(C(=O)OCc4ccccc4C)CC[C@]3(C)CC[C@]12C |
| 90.3 | CC1=C(O)C(=O)C=C2C1=CC=C1[C@@]2(C)CC[C@@]2(C)[C@@H]3C[C@](C)(C(=O)OCc4cccc(C)c4)CC[C@]3(C)CC[C@]12C |

The remaining lines, values behind:

| SMILES | inhibition [%] |
| --- | --- |
| COCCOC(=O)[C@]1(C)CC[C@]2(C)CC[C@]3(C)C4=CC=C5C(=CC(=O)C(O)=C5C)[C@]4(C)CC[C@@]3(C)[C@@H]2C1 | 90.3 |
| CC1=C(O)C(=O)C=C2C1=CC=C1[C@@]2(C)CC[C@@]2(C)[C@@H]3C[C@](C)(C(=O)OCC4CCCCC4)CC[C@]3(C)CC[C@]12C | 91.4 |
| C#CCOC(=O)[C@]1(C)CC[C@]2(C)CC[C@]3(C)C4=CC=C5C(=CC(=O)C(O)=C5C)[C@]4(C)CC[C@@]3(C)[C@@H]2C1 | 95.1 |
